Measurements: ChEMBL document CHEMBL4680309, “Discovery of a potent β-catenin destabilizer for overcoming the resistance of 5-fluorouracil in colorectal cancer” (Bioorg Med Chem, 2021)

Columns and labels:
Assay type in all cases: functional, cell-based
HCT-8 = assay: Cytotoxicity against human HCT-8 cells assessed as reduction in cell viability incubated for 72 hrs by SRB assay
HT-29 = assay: Cytotoxicity against human HT-29 cells assessed as reduction in cell viability incubated for 72 hrs by SRB assay
RKOE6 = assay: Cytotoxicity against human RKOE6 cells assessed as reduction in cell viability incubated for 72 hrs by SRB assay
HCT-116 = assay: Cytotoxicity against human HCT-116 cells assessed as reduction in cell viability incubated for 72 hrs by SRB assay
LoVo = assay: Cytotoxicity against human LoVo cells assessed as reduction in cell viability incubated for 72 hrs by SRB assay
SW480 = assay: Cytotoxicity against human SW480 cells assessed as reduction in cell viability incubated for 72 hrs by SRB assay

Measured: inhibition

C=C1C(=O)O[C@@H]2CCCn3cccc3[C@@H]12
active: HCT-8 = Dose-dependent effect | HT-29 = Dose-dependent effect | RKOE6 = Dose-dependent effect | HCT-116 = Dose-dependent effect | LoVo Dose-dependent effect | SW480 = Dose-dependent effect
